# Tested on: HEK293T reporter cells
# Test: Cytotoxicity assay (CCK-8)
# Assay type: cell-based, human
# Conditions: 100 μM, 72 h
# Procedure: HEK293T reporter cells were plated in 96-well plates (4–6 × 10^3 cells/well) and cultured for 12 h before the following experiments. The medium was replaced with 100 μL fresh medium containing compounds or DMSO. The medium change was performed 72 h afterward and cytotoxicity was measured by the cell-counting kit-8 (CCK-8, Dojindo Laboratories, Japan) reagent following the manufacturer’s instructions.
substance,measurement,value
1-(2-(4-nitrophenyl) hydrazono)-4-bromo-acetophenone [C12],"cytotoxicity (cell survival, CCK-8)",no cytotoxicity

# From article PMC9688475, “Identification and Analysis of Small Molecule Inhibitors of CRISPR-Cas9 in Human Cells” (Cells, 2022)
